In the experiment the target is T1, human FcγRIa extracellular domain with C-terminal His tag (human, UniProt P12314 16-292).
T1 construct: not shown: His tag at the C terminus
In words: SPR (Biacore), antibody captured, FcγR analyte. A general note: In SPR one partner is held on a chip, and binding of the other changes the refractive index at the surface.

Chains of the proteins cited; added tags and fusions are not shown. Residues count along the entry.
UniProt P12314, 16-292: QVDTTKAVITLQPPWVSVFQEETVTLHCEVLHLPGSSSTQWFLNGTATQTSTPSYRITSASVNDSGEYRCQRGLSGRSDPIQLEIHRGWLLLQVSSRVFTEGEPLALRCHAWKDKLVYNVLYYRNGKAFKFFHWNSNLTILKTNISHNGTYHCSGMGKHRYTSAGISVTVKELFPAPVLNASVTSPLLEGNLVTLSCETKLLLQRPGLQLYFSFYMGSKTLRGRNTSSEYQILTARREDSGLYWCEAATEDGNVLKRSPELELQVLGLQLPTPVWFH

Substitutions are numbered along the chain they refer to. Names may count otherwise.

In patent US20220389118A1 (Chugai, published 2022) one finds Kd data, which are given here for two molecules.

B1: IL6R-BP542/IL6R-L (antibody, human IgG1, kappa)
heavy: QVQLQESGPGLVKPSETLSLTCAVSGHSISHDHAWSWVRQPPGEGLEWIGFISYSGITNYNPSLQGRVTISRDNSKNTLYLQMNSLRAEDTAVYYCARSLARTTAMDYWGEGTLVTVSSASTKGPSVFPLAPSSKSTSGGTAALGCLVKDYFPEPVTVSWNSGALTSGVHTFPAVLQSSGLYSLSSVVTVPSSSLGTQTYICNVNHKPSNTKVDKKVEPKSCDKTHTCPPCPAPDLLGDDSVFLFPPKPKDTLMISRTPEVTCVVVDVSDEDGEVKFNWYVDGVEVHNAKTKPREEQFNSTYRVVSVLTVLHQDWLNGKEYKCKVSNKALPRPIEKTISKAKGQPREPQVYTLPPSRDELTKNQVSLTCLVKGFYPSDIAVEWESNGQPENNYKTTPPVLDSDGSFFLYSKLTVDKSRWQQGNVFSCSVMHEALHNHYTQESLSLSP
light: not shown
notes: Y296F introduced into IL6R-BP230 (takes the place of Y296D); copies: 2 + 2
On to B1, for which binding was put at a Kd of 13 nM.

B2: IL6R-BP545/IL6R-L (antibody, human IgG1, kappa)
heavy: B1 heavy with F298D, D358E
light: not shown
notes: D356E introduced into IL6R-BP230; copies: 2 + 2
B2: binding was characterised by a dissociation constant (Kd) of 9.9 nM.
